Results published in patent US8257690B2, “Protein-based polymer tissue adhesives for medical use” (Actamax Surgical Materials, LLC, priority 2004, dated 2012).

Test system: CHO-K1 cells
Assay type: cell-based, Chinese hamster
Description: Tests were done using Chinese hamster ovary (CHO-K1) cell cultures according to ISO10993-5:1999. The CHO-K1 cells were obtained from the American Type Culture Collection (ATCC), Manassas, Va., and were grown in F12-K medium supplemented with 10% fetal bovine serum.
Cytotoxicities of polyamines were determined as described Examples 25-35, except that 100 μL of a 10 wt % aqueous solution of each polyamine was mixed with 1 mL of culture medium, incubated for 24 h at 37° C., serially diluted, and then 100 μL of each of these solutions was added to the CHO-K1 cells. The CHO-K1 cells had previously been plated out at 50,000 cells per well in a culture plate, incubated in 100 μL of culture medium for 24 h, and decanted of medium. After incubation of CHO-K1 cells with the serially diluted polyamine solutions for 18 h at 37° C., cell viability was determined by a colorimetric assay of mitochondrial dehydrogenase-catalyzed reduction of MTT (Sigma TOX-1®; Sgouras, et al. Journal of Materials Science: Materials in Medicine 1:61-68 (1990)) and an adenylate kinase-based luminescence assay of ATP (ToxiLight®; Crouch, et al. Journal of Immunological Methods 160:81-88 (1993)).

“8-arm poly(ethylene glycol) octaamine [Example 36]” was tested, and the “CHO-K1 Cell Viability” value was 100.
